Test: soluble on expression in E. coli; label from the status in PepcDB or PDB records

Sequence	soluble on expression in E. coli
MDEDVLTTLKILIIGESGVGKSSLLLRFTDDTFDPELAATIGVDFKVKTISVDGNKAKLAIWDTAGQERFRTLTPSYYRGAQGVILVYDVTRRDTFVKLDNWLNELETYCTRNDIVNMLVGNKIDKENREVDRNEGLKFARKHSMLFIEASAKTCDGVQCAFEELVEKIIQTPGLWESENQNKGVKLSHREEGQGGGACGGYCSVL	soluble
MEEQPQMQDADEPADSGGEGRAGGPPQVAGAQAACSEDRMTLLLRLRAQTKQQLLEYKSMVDASEEKTPEQIMQEKQIEAKIEDLENEIEEVKVAFEIKKLALDRMRLSTALKKNLEKISRQSSVLMDNMKHLLELNKLIMKSQQESWDLEEKLLDIRKKRLQLKQASESKLLEIQTEKNKQKIDLDSMENSERIKIIRQNLQMEIKITTVIQHVFQNLILGSKVNWAEDPALKEIVLQLEKNVDMM	soluble
MENDPNLFVALYDFVASGDNTLSITKGEKLRVLGYNHNGEWCEAQTKNGQGWVPSQYITPVNS	soluble
MPVAVMAESAFSFKKLLDQCENQELEAPGGIATPPVYGQLLALYLLHNDMNNARYLWKRIPPAIKSANSELGGIWSVGQRIWQRDFPGIYTTINAHQWSETVQPIMEALRDATRRRAFALVSQAYTSIIADDFAAFVGLPVEEAVKGILEQGWQADSTTRMVLPRKPVAGALDVSFNKFIPLSEPAPVPPIPNEQQLARLTDYVAFLEN	soluble
MVRSGNKAAVVLCMDVGFTMSNSIPGIESPFEQAKKVITMFVQRQVFAENKDEIALVLFGTDGTDNPLSGGDQYQNITVHRHLMLPDFDLLEDIESKIQPGSQQADFLDALIVSMDVIQHETIGKKFEKRHIEIFTDLSSRFSKSQLDIIIHSLKKCDISLQFFLPFSLGKEDGSGDRGDGPFRLGGHGPSFPLKGITEQQKEGLEIVKMVMISLEGEDGLDEIYSFSESLRKLCVFKKIERHSIHWPCRLTIGSNLSIRIAAYKSILQERVKKTWTVVDAKTLKKEDIQKETVYCLNDDDETEVLKEDIIQGFRYGSDIVPFSKVDEEQMKYKSEGKCFSVLGFCKSSQVQRRFFMGNQVLKVFAARDDEAAAVALSSLIHALDDLDMVAIVRYAYDKRANPQVGVAFPHIKHNYECLVYVQLPFMEDLRQYMFSSLKNSKKYAPTEAQLNAVDALIDSMSLAKKDEKTDTLEDLFPTTKIPNPRFQRLFQCLLHRALHPREPLPPIQQHIWNMLNPPAEVTTKSQIPLSKIKTLFPLIEAKKKDQVTAQEIFQDNHEDGPTAK	soluble

Source: the DeepSol protein solubility set
